scFv variants of Ab-14 (light chain) against a SARS-CoV-2 spike peptide

From the AlphaSeq antibody data of Li et al. 2023 (doi:10.1038/s41467-023-39022-2), copy in the FLAb collection.

The target is the same throughout: PDVDLGDISGINAS, from the HR2 region of SARS-CoV-2 spike.

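The parent was found by panning a naive human phage display library on the peptide. These sequences belong to a second round, designed from the earlier measurements on random variants of the parent. Their group label is 14L_En_Gen (En: ensemble of fine-tuned language models; Gen: genetic algorithm). The scFvs were displayed on barcoded MATa yeast, the peptide on MATalpha yeast. Mating (16 h, 30 °C) was followed by selection of diploids and sequencing of their barcodes. Each replicate has its own calibration line, from reference interactions of the BCL2 family. Mating was done six times.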

Parent scFv Ab-14: VH joined to VL by the linker GGGGSGGGGSGGGGS. Changes lie in the light chain CDRs alone.
VH: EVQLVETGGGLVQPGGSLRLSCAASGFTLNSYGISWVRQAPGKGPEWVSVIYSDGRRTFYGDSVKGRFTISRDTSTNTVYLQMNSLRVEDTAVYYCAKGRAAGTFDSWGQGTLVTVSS
VL: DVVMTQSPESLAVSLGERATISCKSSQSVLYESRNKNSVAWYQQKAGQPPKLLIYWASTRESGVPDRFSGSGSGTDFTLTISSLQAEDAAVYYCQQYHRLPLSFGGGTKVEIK

Each variant is given by its three light chain CDRs, as the data file delimits them; those of the parent are KSSQSVLYESRNKNSVA, WASTRES, QQYHRLPLS. Numbers give log10(Kd / nM), so 0 is 1 nM and 3 is 1 µM. Smaller is tighter. A pair that was not seen in that replicate is written "nd"; this usually means weak binding, but a binder can also be missed.

CDR-L1,CDR-L2,CDR-L3,"replicates, log10 nM",empty controls
KISQMVKVGMTHGNSIA,EEQTRAK,QQYHRLPLS,1.68 / 1.92 / 1.39 / 1.35 / 1.38 / 1.56,0 of 18
MLSQMWALGAKVKNSVA,QASMRFN,QQYDRLPLI,nd / nd / nd / 2.44 / 1.78 / 1.73,1 of 18 (4.44)
TISQMTSSFSMNINNVA,EVSTRCK,QQYDRLPLS,0.83 / 0.51 / 0.50 / 0.54 / 0.67 / 0.92,0 of 18
KLSMVTGHMSIEKNNVA,EMETREN,QQYDRLPLS,2.17 / 1.18 / 1.19 / 0.89 / 1.90 / 3.21,0 of 18
MIAQMLGWEQNKINSVA,QANLRTE,QQYDRLPLE,1.18 / 0.69 / 0.73 / 0.68 / 0.82 / 0.72,1 of 18 (2.71)
KITATMRFEQKISNNIA,EVTTRSK,QQYYRLPLS,0.51 / 0.17 / 0.25 / 0.18 / 0.42 / 0.27,2 of 18 (2.13)
MISQILNMGQFAINSVA,QAETRCN,QQYDRLPLM,nd / 3.21 / 2.32 / 2.07 / 2.79 / 2.29,1 of 18 (2.46)
IVSQLMLWGMHAKNSIA,EAELRLN,QQYERLPLF,nd / nd / nd / nd / nd / 1.60,0 of 18
TISQMTSLFSQTINNVA,EVSTREE,QQYDRLPLV,0.58 / 0.16 / 0.18 / 0.16 / 0.39 / 0.72,1 of 18 (2.70)
MISQLINMGSFAINSVA,QASLRCN,QQYDRLPLM,-0.07 / 0.58 / 0.11 / -0.18 / -0.26 / -0.12,1 of 18 (2.59)
NLSGMTAHESVKSKNVA,ERSTREE,QQYNRLPLS,0.49 / 0.18 / 0.55 / 0.21 / 0.48 / 0.58,0 of 18
MISQLYNMGTFAINSVA,QASIRNE,QQYDRLPLT,0.26 / -0.05 / 0.71 / 0.59 / 0.56 / 0.66,0 of 18
KIGMTLNQLLHQKNNVA,DLVERED,QQYHRLPLS,0.89 / 0.55 / 0.31 / 0.56 / 0.88 / 0.49,0 of 18
MVTQMAMSGMTNKRSVA,NAEMRED,QQYHRLPLI,nd / nd / nd / nd / nd / nd,0 of 18
MIYGANRELGLAANSIA,DNVTRYN,QQYERLPLS,1.43 / 1.46 / 0.93 / nd / 1.67 / nd,3 of 18 (2.32)
KVSEFMKGLMMRTDSIA,DNNTRSN,QQYDRLPLS,2.81 / 1.91 / 2.51 / 2.64 / 2.42 / 2.60,0 of 18
TISGLMNHMMRNSNNVA,NMDMREM,QQYDRLPLS,0.12 / -0.18 / 0.01 / -0.39 / -0.20 / -0.06,1 of 18 (2.83)
KLTMITGLEKVSTNNVA,EMETRER,QQYNRLPLS,0.70 / 0.70 / 0.68 / 0.52 / 0.91 / 0.72,1 of 18 (2.24)
TISQITSTFSMNINNVA,EVSTREK,QQYDRLPLS,0.46 / 0.04 / 0.01 / 0.06 / -0.01 / 0.15,1 of 18 (4.49)
QISGITGHMSMLKNNVA,EMETREN,QQYDRLPLS,0.91 / 0.69 / 0.90 / 0.92 / 0.76 / 0.84,3 of 18 (2.64)
KLVQFMNRGTHHTSNIA,DAQNRLD,QQYARLPLA,0.19 / 0.55 / 0.09 / 0.27 / 0.54 / 0.72,0 of 18
MISNVMNTLTRLGNNVA,DLAERED,QQYFRLPLS,1.56 / 3.19 / 2.24 / 0.94 / 1.68 / 2.79,0 of 18
SLYEMSYELSGKTHSVA,DNSTRGD,QQYFRLPLD,1.55 / 1.37 / 1.43 / 1.49 / 1.82 / 2.01,1 of 18 (2.93)
KIGDTLNQLMTKRNNVA,DLVMREN,QQYFRLPLS,0.16 / 0.57 / 0.61 / 0.39 / 0.58 / 0.59,1 of 18 (2.15)
TISQLTSSFSQNINNVA,EVSTRLK,QQYDRLPLA,0.82 / 0.68 / 0.74 / 0.28 / 0.48 / 1.07,1 of 18 (1.31)
IVSQLMIWGMHLKNSIA,EAQTRLN,QQYDRLPLF,nd / nd / nd / nd / nd / nd,0 of 18
KVSEFMRGLMSRQDSIA,DNVTRNY,QQYDRLPLS,1.45 / 1.40 / 1.28 / 1.55 / 1.78 / 2.00,1 of 18 (1.89)
KLSKVTGHMSMAKNNVA,EMVTREK,QQYNRLPLS,0.95 / 0.95 / 1.20 / 1.59 / 1.54 / 1.51,1 of 18 (2.15)
MVSQLMLWGLHAKNSIA,EAVTRFN,QQYDRLPLI,3.59 / 2.23 / nd / nd / 2.95 / 2.21,0 of 18
TIGAQLMYGMRNRSNVA,EVSERLN,QQYDRLPLM,nd / 2.13 / 1.78 / 1.43 / 2.27 / 1.57,1 of 18 (1.85)
HMSALTLQGMRHRNSVA,QMTTREK,QQYDHLPLS,0.80 / 0.41 / 0.28 / 0.41 / 0.10 / 0.75,1 of 18 (1.89)
MVTQLMIWGMHLKNSIA,EAQTRVN,QQYDRLPLF,1.42 / 1.69 / 1.03 / 0.84 / 1.00 / 1.13,0 of 18

Top 2 of the variants detected in all replicates, tightest first:

CDR-L1,CDR-L2,CDR-L3,"replicates, log10 nM",empty controls
TISGLMNHMMRNSNNVA,NMDMREM,QQYDRLPLS,0.12 / -0.18 / 0.01 / -0.39 / -0.20 / -0.06,1 of 18 (2.83)
MISQLINMGSFAINSVA,QASLRCN,QQYDRLPLM,-0.07 / 0.58 / 0.11 / -0.18 / -0.26 / -0.12,1 of 18 (2.59)

The parent sequence was in this pool as ten entries: three were never detected, three once, and four in most replicates, with averages from 0.34 to 2.37. In the paper, a design with two or fewer of six values counts as a poor binder. Values of this round are not directly comparable with the first-round values of the same sequences. Three control strains display no target. For all light chain designs, 4% of the pairings with them gave a signal, with a median of 2.64 and one signal in twenty below 1.59, so weak values seen in few replicates may be background. Also given: how often the same scFv was detected with the empty control strains, with their mean in brackets.